According to PubChem BioAssay (NCI):
Only a part is listed here, and it is no random draw. Some structures have more than one record in an assay (separate samples or runs), and their calls can disagree. Calls of active or inactive are those of the source. Rule as the data show it: active = growth inhibition above about 70%; inactive = the rest.

How the values were obtained:
[1] = NCI Yeast Anticancer Drug Screen. Data for the rad50 strain (AID 155);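 also: 0% = growth of vehicle-only cultures of the same strain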; settings: S. cerevisiae rad50 strain growth inhibition, active compounds read high
[2] = NCI Yeast Anticancer Drug Screen. Data for the mec2-1 strain (AID 157); settings: S. cerevisiae mec2-1 strain, active compounds read high
[3] = NCI Yeast Anticancer Drug Screen. Data for the sgs1 mgt1 strain (AID 161);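 also: 0% = growth of cultures given vehicle only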; settings: S. cerevisiae sgs1 mgt1 strain, active compounds read high
[4] = NCI Yeast Anticancer Drug Screen. Data for the cln2 rad14 strain (AID 165);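 also: 0% = growth equal to vehicle treated cultures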; settings: S. cerevisiae cln2 rad14 strain, active compounds read high
[5] = NCI Yeast Anticancer Drug Screen. Data for the bub3 strain (AID 167); settings: S. cerevisiae bub3 mutant strain, active compounds read high
[6] = NCI Yeast Anticancer Drug Screen. Data for the mlh1 rad18 strain (AID 175); settings: S. cerevisiae mlh1 rad18 strain growth inhibition, active compounds read high
[7] = at 5.0 µM (retest, dose inferred, filed as 0.5)
[8] = at 50.0 µM (retest, dose inferred, filed as 5.0)

Measured: growth inhibition

Cc1ccc(CN(CCCl)Cc2ccc(C)cc2)cc1
inactive: [1]; [7] 7% | [2]; [7] 1% | [2]; at 50.0 µM 56.2% | [3]; [7] 5% | [4]; [7] 1% | [4]; [8] 50% | [4]; at 50.0 µM 46.4% | [5]; [7] 3% | [5]; at 50.0 µM 58% | [6]; [7] 29%
active: [1]; [8] 75% | [1]; at 50.0 µM 78.6% | [2]; [8] 87% | [3]; [8] 95% | [3]; at 50.0 µM 90% | [5]; [8] 83% | [6]; [8] 97% | [6]; at 50.0 µM 97.8%

O=[N+]([O-])c1ccc(N(CCS(=O)O)c2ccc([N+](=O)[O-])cc2[N+](=O)[O-])c([N+](=O)[O-])c1
inactive: [1]; [7] 35% | [1]; [8] 35% | [1]; at 50.0 µM 42.1% | [2]; [7] 24% | [2]; [8] 24% | [3]; [7] 49% | [3]; [8] 49% | [4]; [7] 23% | [4]; [8] 23% | [5]; [7] 20% | [5]; [8] 20% | [6]; [7] 36% | [6]; [8] 36%
active: [2]; at 50.0 µM 81.6% | [3]; at 50.0 µM 78.3% | [4]; at 50.0 µM 79.3% | [5]; at 50.0 µM 81.1% | [6]; at 50.0 µM 70.7%

CCOP1(=O)N=C(C)NC(C)=N1
inactive: [1]; [7] -1% | [1]; [8] -10% | [1]; at 50.0 µM -0.5% | [2]; [7] 1% | [2]; [8] -6% | [2]; at 50.0 µM -10.1% | [3]; [7] -4% | [3]; [8] -8% | [3]; at 50.0 µM -7.4% | [4]; [7] 2% | [4]; [8] -13% | [4]; at 50.0 µM 9.8% | [5]; [7] 2% | [5]; [8] 0% | [5]; at 50.0 µM 9.65% | [6]; [7] -1% | [6]; [8] -13% | [6]; at 50.0 µM -2.55%

CCN(CC)[P+](c1ccc(OC)cc1OC)(N(CC)CC)N(CC)CC
inactive: [4]; [7] 69%
active: [1]; [7] 80% | [1]; [8] 95% | [1]; at 50.0 µM 82.8% | [2]; [7] 70% | [2]; [8] 96% | [2]; at 50.0 µM 85.2% | [3]; [7] 88% | [3]; [8] 96% | [3]; at 50.0 µM 86.5% | [4]; [8] 94% | [4]; at 50.0 µM 82% | [5]; [7] 88% | [5]; [8] 96% | [5]; at 50.0 µM 87.7% | [6]; [7] 73% | [6]; [8] 95% | [6]; at 50.0 µM 88.6%

NNP(=O)(OCc1ccccc1)N(CCCl)CCCl (configuration not stated)
inactive: [1]; [7] -6% | [1]; [8] 1% | [1]; at 50.0 µM -10.4% | [2]; [7] 2% | [2]; [8] 5% | [2]; at 50.0 µM 12.4% | [3]; [7] -3% | [3]; [8] 5% | [3]; at 50.0 µM 9.4% | [4]; [7] -1% | [4]; [8] 39% | [4]; at 50.0 µM 50.3% | [5]; [7] -5% | [5]; [8] 9% | [5]; at 50.0 µM 7.05% | [6]; [7] -3% | [6]; [8] 0% | [6]; at 50.0 µM 25.9%

COc1cc([N+](=O)[O-])c(Nc2ccc(Cl)cc2[N+](=O)[O-])c([N+](=O)[O-])c1
active: [1]; [8] 82% | [1]; at 50.0 µM 88.9% | [2]; at 50.0 µM 71% | [3]; [8] 71% | [3]; at 50.0 µM 85.3% | [5]; at 50.0 µM 77.2% | [6]; [8] 86% | [6]; at 50.0 µM 90.9%
inactive: [1]; [7] 33% | [2]; [7] 13% | [2]; [8] 61% | [3]; [7] 23% | [4]; [7] 6% | [4]; [8] 66% | [4]; at 50.0 µM 69.4% | [5]; [7] 19% | [5]; [8] 54% | [6]; [7] 6%

CC(=O)OC1(C)CC(=O)OCC23CCC(C)=CC2OC2CC(OC(=O)/C=C/C=C/C(C(C)O)OCC1O)C3(C)C21CO1 (configuration not stated)
active: [1]; [8] 96% | [1]; at 50.0 µM 90% | [2]; [8] 96% | [2]; at 50.0 µM 93.6% | [3]; [8] 97% | [3]; at 50.0 µM 92.2% | [4]; [8] 96% | [4]; at 50.0 µM 90.4% | [5]; [8] 96% | [5]; at 50.0 µM 91.7% | [6]; [8] 95% | [6]; at 50.0 µM 90.7%
inactive: [1]; [7] 15% | [2]; [7] 12% | [3]; [7] 4% | [4]; [7] 34% | [5]; [7] 3% | [6]; [7] 15%

C(=C\c1ccc2ccccc2n1)/c1ccccc1
inactive: [1]; [7] -3% | [1]; [8] -3% | [2]; [7] 0% | [2]; [8] 0% | [2]; at 50.0 µM 17.6% | [3]; [7] -6% | [3]; [8] 5% | [3]; at 50.0 µM 33.8% | [4]; [7] 1% | [4]; [8] -15% | [5]; [7] -3% | [5]; [8] -4% | [5]; at 50.0 µM 59.2% | [6]; [7] -2% | [6]; [8] -8% | [6]; at 50.0 µM -10.4%
active: [1]; at 50.0 µM 74.3% | [4]; at 50.0 µM 96.2%

Cc1ccc(N2CC=C(c3ccc(Cl)cc3Cl)OP2(=O)Cl)cc1 (configuration not stated)
inactive: [1]; [7] 8% | [2]; [7] -13% | [3]; [7] 3% | [4]; [7] -5% | [5]; [7] -6% | [6]; [7] 1%
active: [1]; [8] 97% | [1]; at 50.0 µM 96.5% | [2]; [8] 88% | [2]; at 50.0 µM 98.1% | [3]; [8] 94% | [3]; at 50.0 µM 95% | [4]; [8] 85% | [4]; at 50.0 µM 90.4% | [5]; [8] 93% | [5]; at 50.0 µM 96.3% | [6]; [8] 94% | [6]; at 50.0 µM 97.8%
